The assay deals with HT-29 cells. As to the kind of experiment: ADCP: phagocytosis of HT-29 cells by HPMMs, combination with cetuximab. Format: cell-based, human. Particulars: HPMMs effector, HT29 target cells, 37° C. 2 h; FIG. 7. Here is the method:
PBMCs (prepared by Akeso Biopharma, Inc., Lot No: 20200521-E) were thawed and incubated with 1640 complete medium+10% FBS (Excell bio, Cat. No: FSP500, Lot No: 11I025) overnight. The next day, the medium was changed to 1640 complete medium+2% FBS, and the cells were incubated with the medium for 2 h. The supernatant was removed, and the cells were washed twice with PBS and incubated in an incubator (90% 1640+10% FBS+M-CSF-100 ng/mL) to induce adult human macrophages (HPMMs, prepared by Akeso Biopharma, Inc.). The medium was exchanged and the treatment was given on days 3 and 5. The experiment was performed on day 7 of induction.
HT-29 cells (Chinese Academy of Sciences, Shanghai Institutes for Biological Sciences Cell Center, Cat. No: TCHu103) were conventionally collected, centrifuged at 170×g for 5 min, resuspended and then counted. Then the cells were analyzed for viability and washed once with PBS. […] 1 mL of 1640 complete medium was added, and the cells were incubated in an incubator for 10 min, resuspended and counted. […]
6F7H1L1(hG4) and cetuximab (prepared by Akeso Biopharma, Inc., Lot No: 20200917) were diluted to the desired concentrations with 1640 complete medium, and an isotype control antibody group was set. […] The cells were counted, transferred to 1.5 mL EP tubes and centrifuged at 1200×g for 5 min, and the supernatant was discarded. […]

Regarding “cetuximab: anti-human EGFR antibody, prepared by Akeso Biopharma, Inc.”, the “phagocytic index (ADCP)” value is “significantly higher than those of the blank control and the isotype control (human IgG4)”.
